Consider seven molecules from patent US8350048B2 (dated 2013).

Amino acid sequences for entries named in this document (tags omitted).
UniProt P11712, whole entry: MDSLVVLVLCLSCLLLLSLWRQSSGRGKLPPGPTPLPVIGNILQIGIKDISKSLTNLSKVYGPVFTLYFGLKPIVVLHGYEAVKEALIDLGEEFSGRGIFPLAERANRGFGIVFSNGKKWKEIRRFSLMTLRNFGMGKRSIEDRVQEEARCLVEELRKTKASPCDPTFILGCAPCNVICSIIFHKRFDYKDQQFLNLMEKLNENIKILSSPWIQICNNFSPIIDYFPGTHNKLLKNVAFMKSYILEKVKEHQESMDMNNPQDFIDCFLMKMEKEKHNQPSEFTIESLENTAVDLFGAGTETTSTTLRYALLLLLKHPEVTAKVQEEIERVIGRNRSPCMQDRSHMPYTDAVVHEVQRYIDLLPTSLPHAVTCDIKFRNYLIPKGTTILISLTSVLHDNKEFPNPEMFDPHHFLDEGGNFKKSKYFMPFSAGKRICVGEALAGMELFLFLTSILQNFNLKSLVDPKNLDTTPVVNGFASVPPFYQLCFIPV
UniProt P08684, whole entry: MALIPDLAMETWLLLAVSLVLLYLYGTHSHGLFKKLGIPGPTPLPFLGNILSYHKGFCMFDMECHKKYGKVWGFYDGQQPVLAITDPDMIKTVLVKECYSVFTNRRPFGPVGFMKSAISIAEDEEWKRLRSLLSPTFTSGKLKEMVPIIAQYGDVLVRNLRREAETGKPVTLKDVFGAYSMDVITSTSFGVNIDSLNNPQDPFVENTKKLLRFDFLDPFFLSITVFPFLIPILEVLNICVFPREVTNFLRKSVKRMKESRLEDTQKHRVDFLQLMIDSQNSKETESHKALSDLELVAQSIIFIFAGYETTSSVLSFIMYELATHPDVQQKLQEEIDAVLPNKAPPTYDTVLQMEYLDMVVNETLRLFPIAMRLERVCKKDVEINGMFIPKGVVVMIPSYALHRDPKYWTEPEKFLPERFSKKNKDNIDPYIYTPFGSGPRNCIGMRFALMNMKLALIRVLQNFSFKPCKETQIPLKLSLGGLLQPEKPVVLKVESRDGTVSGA
UniProt P33261, whole entry: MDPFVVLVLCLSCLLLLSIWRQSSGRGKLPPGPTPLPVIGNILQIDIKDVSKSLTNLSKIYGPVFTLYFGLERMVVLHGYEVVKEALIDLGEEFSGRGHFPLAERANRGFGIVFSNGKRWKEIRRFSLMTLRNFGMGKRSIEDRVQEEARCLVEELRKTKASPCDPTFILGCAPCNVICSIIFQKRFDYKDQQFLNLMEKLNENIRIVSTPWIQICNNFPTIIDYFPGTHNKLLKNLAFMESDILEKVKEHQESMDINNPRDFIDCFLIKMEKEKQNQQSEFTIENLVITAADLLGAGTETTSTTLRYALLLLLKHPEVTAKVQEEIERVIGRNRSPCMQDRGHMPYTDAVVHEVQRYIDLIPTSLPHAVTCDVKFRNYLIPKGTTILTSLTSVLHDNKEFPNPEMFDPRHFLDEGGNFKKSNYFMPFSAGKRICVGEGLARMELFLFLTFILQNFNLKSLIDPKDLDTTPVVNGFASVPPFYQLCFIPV
UniProt P05177, whole entry: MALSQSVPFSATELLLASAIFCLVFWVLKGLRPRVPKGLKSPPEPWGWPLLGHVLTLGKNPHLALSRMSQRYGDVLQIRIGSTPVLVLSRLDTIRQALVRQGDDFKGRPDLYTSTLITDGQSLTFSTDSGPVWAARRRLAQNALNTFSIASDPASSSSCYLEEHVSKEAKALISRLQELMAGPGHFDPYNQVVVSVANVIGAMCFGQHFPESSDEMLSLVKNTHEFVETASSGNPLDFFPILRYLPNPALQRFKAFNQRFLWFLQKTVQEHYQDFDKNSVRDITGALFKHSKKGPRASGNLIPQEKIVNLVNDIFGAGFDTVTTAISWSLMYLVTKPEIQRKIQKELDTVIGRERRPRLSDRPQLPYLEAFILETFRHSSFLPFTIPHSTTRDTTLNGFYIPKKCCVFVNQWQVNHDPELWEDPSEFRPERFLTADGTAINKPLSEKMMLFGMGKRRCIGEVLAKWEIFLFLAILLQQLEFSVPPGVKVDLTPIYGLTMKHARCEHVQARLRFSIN
UniProt P10635, whole entry: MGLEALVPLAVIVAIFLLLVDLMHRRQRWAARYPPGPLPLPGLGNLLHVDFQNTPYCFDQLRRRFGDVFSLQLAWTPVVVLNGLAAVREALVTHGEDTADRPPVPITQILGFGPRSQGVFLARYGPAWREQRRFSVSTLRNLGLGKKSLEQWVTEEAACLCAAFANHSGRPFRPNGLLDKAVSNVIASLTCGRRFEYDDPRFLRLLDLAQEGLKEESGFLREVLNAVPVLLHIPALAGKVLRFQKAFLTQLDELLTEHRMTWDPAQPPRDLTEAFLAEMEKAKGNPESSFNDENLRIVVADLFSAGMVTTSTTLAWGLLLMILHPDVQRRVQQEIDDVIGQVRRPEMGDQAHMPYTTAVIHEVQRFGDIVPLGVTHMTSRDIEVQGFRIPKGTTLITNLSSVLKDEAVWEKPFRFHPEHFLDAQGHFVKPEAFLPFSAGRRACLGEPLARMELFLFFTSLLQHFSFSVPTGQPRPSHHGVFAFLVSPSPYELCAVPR

Read-outs that look alike come from different tables or passages of the source.

For data set [1], the target named is T1, CYP2C9 (Homo sapiens, UniProt P11712).
For data set [2], the target named is T2, CYP3A4 (Homo sapiens, UniProt P08684). Briefly: CYP450 inhibition CDNA-CYP3A4-BQ.
Data set [3] concerns the target T2, CYP3A4. Kind of data set: CYP450 inhibition CDNA-CYP3A4-BFC. The settings on record: for inhibition at 30 min, 10 μM: human, E. coli expressed CYP3A4, pH 7.4, probe BFC 150 μM.
The next data set deals with CYP2C19 (Homo sapiens, UniProt P33261).
The target in data set [4] is T3, CYP1A2 (Homo sapiens, UniProt P05177).
Data set [5] deals with T2, CYP3A4.
The target in the next data set is CYP2D6 (Homo sapiens, UniProt P10635).
The target in data set [6] is T2, CYP3A4. This is another data set of the same source.
Data set [7] deals with T2, CYP3A4. This is another data set of the same source.
Data set [8] is described as follows: Metabolic stability of test compounds (HLM15'). Type of data set: in vitro ADME. The settings on record: human, pH 7.4.
In data set [9] the target is T2, CYP3A4. Briefly: in vitro. As to conditions: pH 7.4.
The target in data set [10] is T3, CYP1A2. Kind of data set: in vitro. As to conditions: pH 7.4.
The target in data set [11] is T1, CYP2C9. Briefly: in vitro. The settings on record: pH 7.4.

For `CC(C)CN(C[C@@H](O)[C@H](Cc1ccccc1)NC(=O)OCc1cncs1)C(=O)c1ccc2nc(N3CCCC3)oc2c1` [Compound C2], the “Cyp450 inhibition: CDNA-CYP2C9-MFC (% inhibition)” value at CYP2C9 [1] is recorded as 99%. The “Cyp450 inhibition: CDNA-CYP3A4-BQ (% inhibition)” value at CYP3A4 [2] (10 μM test compound, substrate BQ 60 μM, 30 min) is 81%. Moreover, the “Cyp450 inhibition: CDNA-CYP3A4-BFC (% inhibition)” value at CYP3A4 [3] (10 μM test compound, substrate BFC 150 μM, 30 min) is on record as 82%.
Regarding `CC(C)CN(C[C@@H](O)[C@H](Cc1ccccc1)NC(=O)OCc1cncs1)C(=O)c1ccc2nc(N)oc2c1` [Compound C22], the “Cyp450 inhibition: CDNA-CYP2C19-CEC (% inhibition)” value on CYP2C19 was 73%. On CYP2C9 [1], the “Cyp450 inhibition: CDNA-CYP2C9-MFC (% inhibition)” value is 85%. The “Cyp450 inhibition: CDNA-CYP1A2-CEC (% inhibition)” value at CYP1A2 [4] was 10%. For the same molecule, the “Cyp450 inhibition: CDNA-CYP3A4-BFC (% inhibition)” value at CYP3A4 [5] is given as 99%. The “Cyp450 inhibition: CDNA-CYP2D6-AMMC (% inhibition)” value on CYP2D6 was determined as 42%. Moreover, the “Cyp450 inhibition: CDNA-CYP3A4-BQ (% inhibition)” value on CYP3A4 [6] was 81%. Besides, at CYP3A4 [7], the “Cyp450 inhibition: CDNA-CYP3A4-DBF (% inhibition)” value is given as 94%.
`CC(C)CN(C[C@@H](O)[C@H](Cc1ccccc1)NC(=O)OCc1cncs1)C(=O)c1ccc2nc(N(C)CCN(C)C)oc2c1` [Compound C24]: on CYP2C19, the “Cyp450 inhibition: CDNA-CYP2C19-CEC (% inhibition)” value turned out to be 54%. The “Cyp450 inhibition: CDNA-CYP2C9-MFC (% inhibition)” value on CYP2C9 [1] is listed as 65%. For the same molecule, the “Cyp450 inhibition: CDNA-CYP1A2-CEC (% inhibition)” value on CYP1A2 [4] is given as 3%. The “Cyp450 inhibition: CDNA-CYP2D6-AMMC (% inhibition)” value on CYP2D6 is on record as 88%.
For `CCc1nc2ccc(C(=O)N(CC(C)C)C[C@@H](O)[C@H](Cc3ccccc3)NC(=O)OCc3cncs3)cc2o1` [Compound C39, Thiazol-5-ylmethyl (2S,3R)-4-(2-ethyl-N-isobutylbenzo[d]oxazole-6-carboxamido)-3-hydroxy-1-phenylbutan-2-ylcarbamate], the recovery in [8] came out at 63%.
Take `CC(C)CN(C[C@@H](O)[C@H](Cc1ccccc1)NC(=O)OCc1cncs1)C(=O)c1ccc2nc(C(C)C)oc2c1` [Compound C45, Thiazol-5-ylmethyl (2S,3R)-3-hydroxy-4-(N-isobutyl-2-isopropylbenzo[d]-oxazole-6-carboxamido)-1-phenylbutan-2-ylcarbamate]: the inhibition at 10 min, 10 μM against CYP3A4 [9] came out at 90%. The inhibition at 30 min, 10 μM was 78% at CYP3A4 [2] (human, E. coli expressed CYP3A4, pH 7.4, probe BQ 60 μM); 99% at CYP3A4 [3]; 97% against CYP2C9 [11]. The molecule also gave an inhibition at 15 min, 10 μM on CYP1A2 [10] of 6%.
Turning to `C#CCN(C)c1nc2ccc(C(=O)N(CC(C)C)C[C@@H](O)[C@H](Cc3ccccc3)NC(=O)OCc3cncs3)cc2o1` [Compound C50], the “Cyp450 inhibition: CDNA-CYP2C19-CEC (% inhibition)” value at CYP2C19 turned out to be 90%. Further, the “Cyp450 inhibition: CDNA-CYP2C9-MFC (% inhibition)” value at CYP2C9 [1] was determined as 103%. For the same molecule, the “Cyp450 inhibition: CDNA-CYP1A2-CEC (% inhibition)” value on CYP1A2 [4] is 12%. Further, at CYP3A4 [5], the “Cyp450 inhibition: CDNA-CYP3A4-BFC (% inhibition)” value is given as 96%. In addition, the “Cyp450 inhibition: CDNA-CYP2D6-AMMC (% inhibition)” value at CYP2D6 is listed as 55%. Also, the “Cyp450 inhibition: CDNA-CYP3A4-BQ (% inhibition)” value at CYP3A4 [6] was determined as 85%. Further, on CYP3A4 [7], the “Cyp450 inhibition: CDNA-CYP3A4-DBF (% inhibition)” value is listed as 98%.
On to `CC(C)CN(C[C@H](O)[C@H](Cc1ccccc1)NC(=O)OCc1cncs1)C(=O)c1ccc2nc(N3CCCC3)oc2c1` [Compound C51, Thiazol-5-ylmethyl (2S,3S)-3-hydroxy-4-(N-isobutyl-2-(pyrrolidin-1-yl)-benzo[d]oxazole-6-carboxamido)-1-phenylbutan-2-ylcarbamate], for which the inhibition at 15 min, 10 μM against CYP1A2 [10] was 13%. The inhibition at 30 min, 10 μM on CYP3A4 [3] is 98%.
